Reference: BindingDB's records for doi:10.1124/mol.63.6.1223 (Case Western Reserve University, 2003)

Protein sequences, listed by entry. Tags and fused reporters are not part of them.
UniProt P41595, whole entry: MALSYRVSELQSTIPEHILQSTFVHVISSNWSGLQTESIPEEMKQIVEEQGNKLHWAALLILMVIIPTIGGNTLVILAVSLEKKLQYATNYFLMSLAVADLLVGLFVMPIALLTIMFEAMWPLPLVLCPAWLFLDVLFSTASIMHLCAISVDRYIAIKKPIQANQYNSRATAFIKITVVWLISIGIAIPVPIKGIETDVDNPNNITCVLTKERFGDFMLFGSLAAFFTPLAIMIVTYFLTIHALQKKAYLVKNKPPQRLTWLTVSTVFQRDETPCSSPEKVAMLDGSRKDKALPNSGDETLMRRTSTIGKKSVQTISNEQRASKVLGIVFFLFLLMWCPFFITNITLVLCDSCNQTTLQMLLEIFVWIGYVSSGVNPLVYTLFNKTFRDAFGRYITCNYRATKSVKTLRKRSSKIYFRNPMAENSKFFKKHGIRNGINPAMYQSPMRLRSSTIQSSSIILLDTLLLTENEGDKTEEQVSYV

Target: 5-hydroxytryptamine receptor 2B (Homo sapiens, UniProt P41595)

SMILES: CCNC(C)Cc1cccc(C(F)(F)F)c1 (stereo unspecified) [NSC_3337]
- Ki: 400 nM
